The list shows a part of the results, in another mix than the full data. Some tests of the compounds listed are not included; inactive here does not mean inactive elsewhere. The source made the active and inactive calls.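 The calls were made as follows: active = activation above a per-plate cutoff, the mean activation of sample wells on that plate plus 3 SD (cut at about 8% in these data); inactive = the rest.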
Each compound was assayed against Melanocortin receptor 4 (Homo sapiens) (UniProt P32245) (assay: activators of MC4R beta-arrestin recruitment – cell-based, luminescence, agonist arm of biased-ligand search, primary screen (AID 540308)). Details: U2OS MC4R beta-arrestin complementation, at 8.9 µM, active compounds read high, percent of melanotan II response, DMSO zero.

Amino acid sequences for entries named in this document (tags omitted).
UniProt P32245, whole entry: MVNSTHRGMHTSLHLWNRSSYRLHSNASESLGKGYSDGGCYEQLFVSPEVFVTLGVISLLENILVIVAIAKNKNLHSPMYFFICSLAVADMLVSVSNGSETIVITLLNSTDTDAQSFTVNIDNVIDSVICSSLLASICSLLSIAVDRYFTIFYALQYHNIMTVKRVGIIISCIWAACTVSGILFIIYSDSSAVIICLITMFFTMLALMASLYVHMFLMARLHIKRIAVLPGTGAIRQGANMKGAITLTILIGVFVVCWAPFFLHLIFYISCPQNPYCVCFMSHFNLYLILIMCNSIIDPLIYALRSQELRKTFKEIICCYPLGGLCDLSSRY

How did the activation turn out when `O=C(NCC1(N2CCCCC2)CCCCC1)c1cccc(Cl)c1` was run?
Its activation is inactive: -0.17%.

For `COc1cccc(C(=O)NCC2(N3CCCCC3)CCCCC2)c1`, which activation is on record?
The activation was inactive: -2.98%.

How did the activation turn out when `COc1ccc(Cl)cc1C(=O)NCC1(N(C)C)CCCCC1` was run?
Its activation is inactive: -0.72%.

Which activation does the source give for `COc1cc(C(=O)NCC2(N(C)C)CCCCC2)c([N+](=O)[O-])cc1OC` here?
Its activation is inactive: -0.92%.

For `CN(C)C1(CNC(=O)c2ccc(Br)cc2)CCCCC1`, which activation is on record?
Its activation is inactive: -1.34%.

With `CC(C)Oc1ccc(C(=O)NCC2(N(C)C)CCCCC2)cc1` as the compound, how does the activation read?
Its activation is inactive: -1%.

How did the activation turn out when `O=C(OCCN1CCCC1)C(O)(c1ccccc1)c1ccccc1` was run?
Its activation is inactive: -1.31%.

How did the activation turn out when `CN(C)c1cccc(C(=O)NCC2(N(C)C)CCCCC2)c1` was run?
The activation was inactive: -2.94%.

With `C=C(C)C#CC(O)(C(=O)OC1CCN(C)CC1)c1ccccc1` (stereo unspecified) as the compound, how does the activation read?
The activation was inactive: -0.72%.

With `COc1ccc(Br)c(C(=O)NCC2(N3CCCCC3)CCCCC2)c1` as the compound, how does the activation read?
Its activation is inactive: -0.47%.

For `O=C(OC1CN2CCC1CC2)C(CO)(c1ccccc1)c1ccccc1` (stereo unspecified), which activation is on record?
The activation was inactive: -0.49%.

How did the activation turn out when `Cc1ccc(C(=O)NCC2(N3CCCCC3)CCCCC2)cc1` was run?
Its activation is inactive: -0.25%.

For `CCN(CC)CC(C)C(C)OC(=O)C(O)(c1ccccc1)c1ccccc1` (stereo unspecified), which activation is on record?
The activation was inactive: -1.47%.

`COc1cc(SC)ccc1C(=O)NCC1(N(C)C)CCCCC1` was tested. Which activation did it give?
Its activation is inactive: -0.68%.

How did the activation turn out when `CC(C)N1C(=O)CC2(CCN(CCOC(=O)C(O)(c3ccccc3)c3ccccc3)CC2)C1=O` was run?
The activation was inactive: -1.62%.

`CN1[C@@H]2CC[C@H]1CC(OC(=O)C(O)(c1ccccc1)c1ccccc1)C2` (stereo partly specified) was tested. Which activation did it give?
Its activation is inactive: -1.23%.

`O=C(NCC1(N2CCCCC2)CCCCC1)c1cc([N+](=O)[O-])ccc1Cl` was tested. Which activation did it give?
Its activation is inactive: 3.99%.

How did the activation turn out when `COc1ccc(C(=O)NCC2(N(C)C)CCCCC2)cc1` was run?
The activation was inactive: -1.05%.

Which activation does the source give for `Cc1cc(C(=O)NCC2(N3CCCCC3)CCCCC2)ccc1[N+](=O)[O-]` here?
Its activation is inactive: -1.16%.

With `CCN1CCCC(OC(=O)C2(O)c3ccccc3C=Cc3ccccc32)C1` (stereo unspecified) as the compound, how does the activation read?
Its activation is inactive: -1.5%.

With `O=C(NCC1(N2CCCCC2)CCCCC1)c1cccc(Br)c1` as the compound, how does the activation read?
Its activation is inactive: 1.27%.

With `C=CCN1CCN(CCOC(=O)C(O)(c2ccccc2)c2ccccc2)CC1` as the compound, how does the activation read?
Its activation is inactive: 4.36%.

How did the activation turn out when `O=C(NCC1(N2CCCCC2)CCCCC1)c1cc(F)c(F)cc1Cl` was run?
The activation was inactive: -1.54%.

Which activation does the source give for `Cc1ccccc1C(=O)NCC1(N2CCCCC2)CCCCC1` here?
Its activation is inactive: -0.25%.

How did the activation turn out when `CN(C)C1CCCC1OC(=O)C(O)(c1ccccc1)c1ccccc1` (stereo unspecified) was run?
The activation was inactive: 1.85%.

Which activation does the source give for `CN(C)c1ccc(C(=O)NCC2(N(C)C)CCCCC2)cc1` here?
The activation was inactive: -2.26%.

Source: PubChem BioAssay AID540308 (The Scripps Research Institute Molecular Screening Center, 2011)
